Experimental data reported in ChEMBL document CHEMBL1201862, “PubChem BioAssay data set” (2004).

What was measured:
Experiment in all cases: NCI-60 cell line screen, 48 h
ACHN = tested on: ACHN
BT-549 = tested on: BT-549
CAKI-1 = tested on: CAKI-1
COLO 205 = tested on: COLO 205
DU-145 = tested on: DU-145
HOP-62 = tested on: HOP-62
HT-29 = tested on: HT-29
LOX IMVI = tested on: LOX IMVI
M14 = tested on: M14
MDA-MB-231 = tested on: MDA-MB-231
MDA-N = tested on: MDA-N
Malme-3M = tested on: Malme-3M
NCI-H226 = tested on: NCI-H226
NCI-H460 = tested on: NCI-H460
OVCAR-3 = tested on: OVCAR-3
OVCAR-4 = tested on: OVCAR-4
OVCAR-8 = tested on: OVCAR-8
PC-3 = tested on: PC-3
RXF 393 = tested on: RXF 393
SK-MEL-28 = tested on: SK-MEL-28
SK-MEL-2 = tested on: SK-MEL-2
SK-OV-3 = tested on: SK-OV-3
SN12C = tested on: SN12C
SNB-19 = tested on: SNB-19
SNB-75 = tested on: SNB-75
SW-620 = tested on: SW-620
T47D = tested on: T47D
TK-10 = tested on: TK-10
U-251 = tested on: U-251

Measured: GI50

O=C1c2c(O)ccc(O)c2C(=O)c2c(NCCNCCO)ccc(NCCNCCO)c21 [MITOXANTRONE]
active: ACHN < 10 nM | BT-549 = 104 nM | CAKI-1 = 13.4 nM | COLO 205 = 135 nM | DU-145 = 22.5 nM | HOP-62 = < 12.4 nM | HT-29 = 135 nM | LOX IMVI 21.4 nM | M14 = 183 nM | MDA-MB-231 = 196 nM | MDA-N 260 nM | Malme-3M 156 nM | NCI-H226 = < 10 nM | NCI-H460 = < 10 nM | OVCAR-3 = 361 nM | OVCAR-4 = 344 nM | OVCAR-8 = 25.5 nM | PC-3 = 125 nM | RXF 393 = 41.6 nM | SK-MEL-28 = 322 nM | SK-MEL-2 = 209 nM | SK-OV-3 = 24.6 nM | SN12C < 13.3 nM | SNB-19 = 24 nM | SNB-75 = < 13.1 nM | SW-620 = 93.8 nM | T47D < 46.6 nM | TK-10 = 240 nM | U-251 = < 10.8 nM

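Results reflect a 48-hour exposure of cells in 96-well plates to compound at five concentrations. Here, GI50 denotes the concentration required for 50% inhibition of growth.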 Calls of active or inactive are those of the source. Rule as the data show it: active = GI50 up to about 1.1 µM and inactive = higher.
